# In US7678386B2, “Liposomes coated with selected antibodies that bind to aminophospholipids” (Board of Regents the University of Texas, priority 2002, dated 2010):
# System: HUVEC
# Experiment: MTT cytotoxicity assay on HUVEC
# Assay type: cell-based
# Settings: compared with untreated control
# Experimental: The biotinylated duramycin construct DLB was prepared as described in Example XV. The unmodified duramycin compound and DLB were tested for cytotoxic effects on HUVEC using an MTT assay.
substance,measurement,value
duramycin,cytotoxic effects (MTT),dose-dependent toxicity
